The target of experiment [1] is Human immunodeficiency virus type 1 reverse transcriptase (Human immunodeficiency virus 1) (UniProt Q72547). Briefly: Inhibition of HIV-1 reverse transcriptase in human Jurkat cells assessed as ratio MTT activity to reverse transcriptase activity with compound/reverse transcriptase activity with DMSO at 1 ug/ml after 72 hrs. The class given is cell-based. Put shortly:
(§1)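 Jurkat cells infected with HIV-1 in the presence of compound, with DMSO as solvent control. Viability was read by MTT assay and HIV replication by reverse transcriptase activity assay. The value is the ratio MTT activity/(RT activity with compound/RT activity in DMSO).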

Experiment [2] has the same target. Briefly: Inhibition of HIV-1 reverse transcriptase in human Jurkat cells assessed as ratio MTT activity to reverse transcriptase activity with compound/reverse transcriptase activity with DMSO at 5 ug/ml after 72 hrs. The format is cell-based. A digest of the protocol: as §1
For experiment [3] the target is unchanged. Briefly: Inhibition of HIV-1 reverse transcriptase at 37.5 to 150 ug/ml by Roche colorimetric assay.

The source made the active and inactive calls. The rule behind the calls is not given here.

As for `C=C(C)[C@@H]1CC[C@]2(C(=O)N[C@H](C)C(=O)O)CC[C@]3(C)[C@H](CC[C@@H]4[C@@]5(C)CC[C@H](O)C(C)(C)[C@@H]5CC[C@]43C)[C@@H]12`, the values for the Ratio in experiment [1] and in experiment [2] were 0.319 and 0.885, respectively. The inhibition result in experiment [3] is “inactive”.

For the compound `C=C(C)[C@@H]1CC[C@]2(C(=O)N[C@H](C)C(=O)[O-])CC[C@]3(C)[C@H](CC[C@@H]4[C@@]5(C)CC[C@H](O)C(C)(C)[C@@H]5CC[C@]43C)[C@@H]12.CCCCCCCCCCCC[N+](C)(C)Cc1ccccc1`, the inhibition result in experiment [3] was “inactive”.

For `C=C(C)[C@@H]1CC[C@]2(C(=O)[O-])CC[C@]3(C)[C@H](CC[C@@H]4[C@@]5(C)CC[C@H](O)C(C)(C)[C@@H]5CC[C@]43C)[C@@H]12.CCCCCCCCCCCC[N+](C)(C)Cc1ccccc1`, the values for the Ratio in experiment [1] and in experiment [2] were 0.121 and 0.474, respectively. For the same compound, in experiment [3], the inhibition result was “inactive”.

The record behind these values is ChEMBL document CHEMBL3600335 (Bioorg Med Chem Lett, 2015).
